Experiments:
[1] = target: Human C1 Esterase (Homo sapiens, UniProt P09871); assay: Selectivity assay: Human C1 Esterase; format: biochemical; conditions: IC50 of 5 or greater is considered inactive
[2] = system: PT
[3] = target: Human Cathepsin B (Homo sapiens, UniProt P07858); assay: Selectivity assay: Human Cathepsin B; format: biochemical; conditions: IC50 of 5 or greater is considered inactive
[4] = target: Human Urokinase (Homo sapiens, UniProt P00749); assay: Selectivity assay: Human Urokinase; format: biochemical; conditions: IC50 of 5 or greater is considered inactive
[5] = target: Human Renin (Homo sapiens, UniProt P00797); assay: Selectivity assay: Human Renin; format: biochemical; conditions: IC50 of 5 or greater is considered inactive
[6] = system: APTT; assay: Selectivity assay: APTT; conditions: IC50 of 5 or greater is considered inactive
[7] = target: Human Thrombin (Homo sapiens, UniProt P00734)
[8] = target: Tissue Plasminogen Activator (Homo sapiens, UniProt P00750); assay: Selectivity assay: Tissue Plasminogen Activator; format: biochemical; conditions: IC50 of 5 or greater is considered inactive
[9] = target: Human Cathepsin G (Homo sapiens, UniProt P08311); assay: Selectivity assay: Human Cathepsin G; format: biochemical; conditions: IC50 of 5 or greater is considered inactive
[10] = system: Total Complement; assay: Selectivity assay: Total Complement; conditions: IC50 of 5 or greater is considered inactive

By UniProt entry, the sequences of proteins in these tests, tags left out. Residues count along the entry.
UniProt P09871, 16-688 limits assumed: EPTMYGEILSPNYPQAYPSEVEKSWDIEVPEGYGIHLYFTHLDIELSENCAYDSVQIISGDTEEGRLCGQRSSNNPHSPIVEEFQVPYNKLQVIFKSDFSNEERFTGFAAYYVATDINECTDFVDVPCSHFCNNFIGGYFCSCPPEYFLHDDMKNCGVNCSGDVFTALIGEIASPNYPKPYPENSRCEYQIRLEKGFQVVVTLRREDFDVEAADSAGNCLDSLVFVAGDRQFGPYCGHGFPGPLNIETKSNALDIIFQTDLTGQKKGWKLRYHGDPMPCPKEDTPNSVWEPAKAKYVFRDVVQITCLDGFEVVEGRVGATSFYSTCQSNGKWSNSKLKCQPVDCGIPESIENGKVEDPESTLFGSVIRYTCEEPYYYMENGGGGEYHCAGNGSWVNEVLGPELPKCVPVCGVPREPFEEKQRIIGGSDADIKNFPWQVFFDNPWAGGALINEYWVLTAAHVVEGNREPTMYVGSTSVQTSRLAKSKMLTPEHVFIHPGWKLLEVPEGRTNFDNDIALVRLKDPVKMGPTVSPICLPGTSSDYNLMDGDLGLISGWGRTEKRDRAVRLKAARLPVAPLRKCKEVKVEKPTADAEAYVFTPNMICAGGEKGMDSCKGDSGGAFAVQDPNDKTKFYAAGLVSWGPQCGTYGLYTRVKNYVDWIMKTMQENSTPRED
UniProt P00797, 67-406 limits assumed: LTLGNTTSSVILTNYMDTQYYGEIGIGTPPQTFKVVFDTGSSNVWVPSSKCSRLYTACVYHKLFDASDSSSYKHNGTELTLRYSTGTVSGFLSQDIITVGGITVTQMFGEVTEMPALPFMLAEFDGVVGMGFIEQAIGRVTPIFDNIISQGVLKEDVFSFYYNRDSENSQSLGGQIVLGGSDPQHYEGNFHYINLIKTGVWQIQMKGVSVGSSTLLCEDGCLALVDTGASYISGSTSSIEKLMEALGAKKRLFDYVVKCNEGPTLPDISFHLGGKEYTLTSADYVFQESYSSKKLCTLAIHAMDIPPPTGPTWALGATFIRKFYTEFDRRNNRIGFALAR
UniProt P00750, 36-562 limits assumed: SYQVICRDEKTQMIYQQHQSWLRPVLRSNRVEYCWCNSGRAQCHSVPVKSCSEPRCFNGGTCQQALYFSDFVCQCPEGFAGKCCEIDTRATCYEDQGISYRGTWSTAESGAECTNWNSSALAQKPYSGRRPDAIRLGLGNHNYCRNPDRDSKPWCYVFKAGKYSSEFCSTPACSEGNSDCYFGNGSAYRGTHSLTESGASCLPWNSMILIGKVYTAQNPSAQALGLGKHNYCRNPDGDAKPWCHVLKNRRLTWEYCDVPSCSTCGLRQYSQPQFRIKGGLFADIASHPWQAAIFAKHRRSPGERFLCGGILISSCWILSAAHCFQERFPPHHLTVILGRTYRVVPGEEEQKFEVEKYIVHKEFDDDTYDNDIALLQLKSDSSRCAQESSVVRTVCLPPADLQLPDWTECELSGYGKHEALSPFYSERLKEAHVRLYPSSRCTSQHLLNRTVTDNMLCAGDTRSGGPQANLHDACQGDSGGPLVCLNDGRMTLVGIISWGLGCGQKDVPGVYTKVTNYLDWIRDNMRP
UniProt P08311, 21-255 limits assumed: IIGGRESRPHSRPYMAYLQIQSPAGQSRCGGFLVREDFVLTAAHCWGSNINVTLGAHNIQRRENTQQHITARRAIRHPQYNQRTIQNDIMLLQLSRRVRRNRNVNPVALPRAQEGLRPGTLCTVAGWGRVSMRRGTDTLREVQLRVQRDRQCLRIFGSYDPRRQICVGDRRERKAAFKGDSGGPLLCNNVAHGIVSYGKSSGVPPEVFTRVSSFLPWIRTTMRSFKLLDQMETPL

CC(C)C(NC(=O)CN(C(=O)[C@@H](NC(=O)c1ccc(C(=O)NS(=O)(=O)c2ccc(Cl)cc2)cc1)C(C)C)C1Cc2ccccc2C1)C(=O)C(F)(F)F (stereo partly shown)
IC50, Human C1 Esterase [1]: > 5 µg/mL | IC50 [2]: > 100 µg/mL | IC50, Human Cathepsin B [3]: > 5 µg/mL | IC50, Human Urokinase [4]: > 5 µg/mL | IC50, Human Renin [5]: > 5 µg/mL | IC50, APTT [6]: > 100 µg/mL | IC50 [7]: > 5 µg/mL | IC50, Tissue Plasminogen Activator [8]: > 5 µg/mL | IC50, Human Cathepsin G [9]: > 7 µg/mL | IC50, Total Complement [10]: > 100 µg/mL

— patent US5221665A, “N-substituted amides” (Boehringer Ingelheim Pharmaceuticals, Inc., priority 1991, dated 1993)
